Drawing on US20180201654, this text covers Kobs for one protein.

The target in series [1] is T1, vIRF4^202-216 peptide (vif1).
T1 chain: SVWIPVNEGASTSGM
Briefly: competitive ITC, TRAF domain pre-titrated with competitor p53^350-364.

The target is the same in series [2]. Put plainly: competitive ITC, TRAF domain pre-titrated with competitor p53^355-369.
Series [3] has the same target. Put plainly: competitive ITC, TRAF domain pre-titrated with competitor MDM2^137-152.

B1: HAUSP TRAF domain (HAUSP^62-205) (protein)
chain: DTSWRSEATFQFTVERFSRLSESVLSPPCFVRNLPWKIMVMPRFYPDRPHQKSVGFFLQCNAESDSTSWSCHAQAVLKIINYRDDEKSFSRRISHLFFHKENDWGFSNFMAWSEVTDPEKGFIDDDKVTFEVFVQADAPHGVAW
Consider B1, for which the Kobs in series [1] was found to be 4.42e+07 M⁻¹; in series [2] it was 3.58e+07 M⁻¹; in series [3], 1.09e+07 M⁻¹.
